One molecule from paper PMC5173035, “Biochemical and structural characterization of a DNA N^6-adenine methyltransferase from Helicobacter pylori” (Oncotarget, 2016) can be followed below.

Assay [1] deals with T1, M1.HpyAVI (Helicobacter pylori, UniProt O24891).
T1 construct: gene HP_0050; full-length, C-terminal His-tag (pET22b), expressed in E. coli with chaperone plasmid PG-KJE8; dimer of 54 kDa; beta-class MTase
T1 sequence (O24891 1-232): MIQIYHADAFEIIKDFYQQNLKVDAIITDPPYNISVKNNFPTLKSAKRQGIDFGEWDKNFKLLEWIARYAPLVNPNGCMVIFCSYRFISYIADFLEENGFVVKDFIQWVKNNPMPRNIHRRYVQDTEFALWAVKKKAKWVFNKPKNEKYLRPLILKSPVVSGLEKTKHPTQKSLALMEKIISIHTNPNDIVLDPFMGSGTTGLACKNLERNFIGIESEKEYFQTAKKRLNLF
Description: microscale thermophoresis, fluorescently labelled protein, unlabelled AdoMet. Type of assay: binding. A general note: Microscale thermophoresis detects binding through changes in fluorescence in a small temperature gradient.

Assay [2] deals with T2, M1.HpyAVI (Helicobacter pylori, UniProt O24891, S198A).
T2 construct: gene HP_0050
Description: biochemical.

Assay [3] addresses T3, M1.HpyAVI (Helicobacter pylori, UniProt O24891, T200A).
T3 construct: gene HP_0050
Description: biochemical.

Assay [4] concerns the target T4, M1.HpyAVI (Helicobacter pylori, UniProt O24891, H168A).
T4 construct: gene HP_0050
Nature of the assay: biochemical.

The target in assay [5] is T5, M1.HpyAVI (Helicobacter pylori, UniProt O24891, D8A).
T5 construct: gene HP_0050
Nature of the assay: biochemical.

Assay [6] concerns the target T6, M1.HpyAVI (Helicobacter pylori, UniProt O24891, G199A).
T6 construct: gene HP_0050
Nature of the assay: biochemical.

Assay [7] has as its target T7, M1.HpyAVI (Helicobacter pylori, UniProt O24891, M196A).
T7 construct: gene HP_0050
Description: biochemical.

For `C[S+](CC[C@H](N)C(=O)O)C[C@H]1O[C@@H](n2cnc3c(N)ncnc32)[C@H](O)[C@@H]1O` (stereo partly shown) [AdoMet], the Kd was 41 ± 6 µM at M1.HpyAVI [1]; 242 ± 32 µM at M1.HpyAVI [2]; 252 ± 28 µM at M1.HpyAVI [3]; 471 ± 51 µM on M1.HpyAVI [4]; 212 ± 11 µM at M1.HpyAVI [5]; 38 ± 6 µM at M1.HpyAVI [6]. Further, binding on M1.HpyAVI [7] was characterised by a dissociation constant (Kd) of 46 ± 11 µM.

Broadly, the Kd is the concentration at which binding is half-saturated.
